Measured values published in patent publication US8865714B2, “Piperazine compound capable of inhibiting prostaglandin D synthase” (Taiho Pharmaceutical Co., Ltd., priority 2009, dated 2014).

The chains behind the UniProt entries cited, without tags or fusion partners. Where a name states a change or a piece, a line headed by the entry shows the natural chain unless it says otherwise.
UniProt O60760: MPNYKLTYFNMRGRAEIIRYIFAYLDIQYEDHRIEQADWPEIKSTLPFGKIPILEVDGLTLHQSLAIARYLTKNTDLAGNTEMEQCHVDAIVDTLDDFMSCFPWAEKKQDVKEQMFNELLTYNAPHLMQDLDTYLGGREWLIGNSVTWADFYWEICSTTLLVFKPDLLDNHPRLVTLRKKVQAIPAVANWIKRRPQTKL

Molecular target: human H-PGDS (Homo sapiens (Human), UniProt O60760)
Experiment: Hematopoietic prostaglandin D synthase (H-PGDS) inhibiting action
Type: biochemical
Details: [14C] prostaglandin H2 10 μM; for H-PGDS inhibition rate (%): compound at 0.1 μM, relative to the control group
Procedure: More specifically, the reaction mixture (49 μL) containing 100 mM Tris-HCl (pH 8.0), 1 mM reduced glutathione, 0.1 mg/mL γ-globulin, and human H-PGDS (q.s.), and a compound (final concentration: 0.01-100 μM) was preincubated at 25° C. for 5 minutes. Note that a DMSO solution (final concentration: 1%) was added to the solvent control group. Subsequently, 1 μL of [14C] prostaglandin H2 (final concentration: 10 μM) was added to start the reaction. One minute after the start of the reaction, 250 μL of a reaction stopper solution (diethylether/methanol/1 M citric acid (30/4/1) at a temperature of −20° C. was added to stop the reaction. After the reaction was stopped, 50 μL of the upper layer portion (organic solvent phase) was applied to a TLC plate and developed at −20° C. for 45 minutes (developing solvent: diethylether/methanol/acetic acid (90/2/1)). After drying the TLC plate, the TLC plate was exposed to an imaging plate for 1 to 24 hours, and the radioactivity corresponding to prostaglandin D2 (PGD2) was analyzed using an image analyzer (produced by Fujifilm Corporation).

Substance	IC50	H-PGDS inhibition rate (%)
4-((3,5-dimethylpyrrol-2-yl)-carbonyl)-N-(4-(4-morpholin-1-yl-carbonylpiperidin-1-yl)-phenyl)-1-piperazinecarboxamide [Reference Example 2]	> 1 µM	3.9%
4-((pyrrol-2-yl)-carbonyl)-N-(4-(4-morpholin-1-yl-carbonylpiperidin-1-yl)-phenyl)-1-piperazinecarboxamide [Reference Example 1]	> 1 µM	2.4%
